Usually EC50 stands for the concentration needed to bring the measured effect to its halfway point.

Chains of the proteins cited; added tags and fusions are not shown. Residues count along the entry.
UniProt P31421, 19-872: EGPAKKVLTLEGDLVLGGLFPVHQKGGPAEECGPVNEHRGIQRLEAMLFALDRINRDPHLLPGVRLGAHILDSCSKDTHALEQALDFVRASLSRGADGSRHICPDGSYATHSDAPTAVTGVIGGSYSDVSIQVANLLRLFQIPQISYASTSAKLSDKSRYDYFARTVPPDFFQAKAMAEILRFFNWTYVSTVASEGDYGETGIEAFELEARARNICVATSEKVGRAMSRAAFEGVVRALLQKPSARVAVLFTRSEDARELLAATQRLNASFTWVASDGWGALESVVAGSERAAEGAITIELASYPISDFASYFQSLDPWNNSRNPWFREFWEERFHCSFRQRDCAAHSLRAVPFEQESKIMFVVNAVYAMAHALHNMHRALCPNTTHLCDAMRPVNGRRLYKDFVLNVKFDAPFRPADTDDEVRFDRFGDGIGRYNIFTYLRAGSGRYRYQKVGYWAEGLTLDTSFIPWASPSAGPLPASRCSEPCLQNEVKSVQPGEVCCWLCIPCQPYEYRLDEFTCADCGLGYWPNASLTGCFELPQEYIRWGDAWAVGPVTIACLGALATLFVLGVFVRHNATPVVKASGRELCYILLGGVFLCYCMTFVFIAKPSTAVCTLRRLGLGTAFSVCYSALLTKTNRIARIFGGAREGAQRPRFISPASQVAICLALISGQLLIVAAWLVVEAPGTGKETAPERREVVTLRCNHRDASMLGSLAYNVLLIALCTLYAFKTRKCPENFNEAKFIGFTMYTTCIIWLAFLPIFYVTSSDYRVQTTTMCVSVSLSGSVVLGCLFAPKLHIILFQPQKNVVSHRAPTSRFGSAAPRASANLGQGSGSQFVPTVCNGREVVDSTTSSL
UniProt P31422, 23-879: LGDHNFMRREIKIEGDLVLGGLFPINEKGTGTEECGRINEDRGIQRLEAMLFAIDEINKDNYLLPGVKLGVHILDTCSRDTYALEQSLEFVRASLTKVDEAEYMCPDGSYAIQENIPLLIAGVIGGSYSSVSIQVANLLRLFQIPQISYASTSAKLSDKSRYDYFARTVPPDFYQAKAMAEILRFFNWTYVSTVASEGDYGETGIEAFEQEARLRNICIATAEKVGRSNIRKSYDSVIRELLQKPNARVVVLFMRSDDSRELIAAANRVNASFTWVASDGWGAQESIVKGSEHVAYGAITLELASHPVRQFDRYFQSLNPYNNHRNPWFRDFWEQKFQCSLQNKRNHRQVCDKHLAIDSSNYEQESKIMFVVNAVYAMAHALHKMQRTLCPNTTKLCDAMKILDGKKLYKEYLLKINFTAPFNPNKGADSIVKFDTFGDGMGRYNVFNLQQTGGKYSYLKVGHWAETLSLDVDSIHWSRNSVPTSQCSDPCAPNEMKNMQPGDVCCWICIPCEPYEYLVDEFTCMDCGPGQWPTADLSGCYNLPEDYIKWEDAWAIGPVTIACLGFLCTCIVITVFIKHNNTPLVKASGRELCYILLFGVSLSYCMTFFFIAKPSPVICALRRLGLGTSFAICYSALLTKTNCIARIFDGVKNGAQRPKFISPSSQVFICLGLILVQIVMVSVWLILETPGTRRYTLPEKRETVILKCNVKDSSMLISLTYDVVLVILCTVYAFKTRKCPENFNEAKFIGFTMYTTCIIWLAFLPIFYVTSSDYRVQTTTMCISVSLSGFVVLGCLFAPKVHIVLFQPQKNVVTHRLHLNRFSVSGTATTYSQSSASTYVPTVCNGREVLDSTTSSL

Where two headings read alike, the source gives them in different places.

The target in one assay is rat mGlu2 receptor (Rattus norvegicus (Rat), UniProt P31421). The experiment in a line: mGlu2 in vitro GIRK thallium flux assay. The assay is classed as cell-based. Conditions: NAM, EC80 glutamate, HEK-293 GIRK cells. As for the experimental part: All cell culture reagents were purchased from Invitrogen Corp. (Carlsbad, Calif.) unless otherwise noted. Compound activity at the group II (mGlu2 and mGlu3) mGlus was assessed using thallium flux through GIRK channels. Briefly, cells were plated into 384-well, black-walled, clear-bottomed poly-D-lysine-coated plates at a density of 15,000 cells/20 μL/well in DMEM containing 10% dialyzed FBS, 20 mM HEPES, and 100 units/mL penicillin/streptomycin (assay media). Plated cells were incubated overnight at 37° C. in the presence of 5% CO2. […] Cells were incubated for 1 h at room temperature, and the dye exchanged to assay buffer using an ELX405, leaving 20 μL/well. Test compounds were diluted to 2 times their final desired concentration in assay buffer (0.3% DMSO final concentration). […] Cell plates and compound plates were loaded onto a kinetic imaging plate reader (FDSS 6000 or 7000; Hamamatsu Corporation, Bridgewater, N.J.). Appropriate baseline readings were taken (10 images at 1 Hz; excitation, 470±20 nm; emission, 540±30 nm) and test compounds were added in a 20 μL volume and incubated for either 2.5 min or 60 min as indicated before the addition of 10 μL of thallium buffer with or without agonist. After the addition of agonist, data were collected for approximately an additional 2.5 min. Data were analyzed using Excel (Microsoft Corp, Redmond, Wash.). The slope of the fluorescence increase beginning 5 s after thallium/agonist addition and ending 15 s after thallium/agonist addition was calculated, corrected to vehicle and maximal agonist control slope values, and plotted in using either XLfit (ID Business Solutions Ltd) or Prism software (GraphPad Software, San Diego, Calif.) to generate concentration-response curves. Potencies were calculated from fits using a four-point parameter logistic equation. For concentration-response curve experiments, compounds were serially diluted 1:3 into 10 point concentration response curves and were transferred to daughter plates using an Echo acoustic plate reformatter (Labcyte, Sunnyvale, Calif.). Test compounds were applied and followed by EC80 concentrations of glutamate.

A further assay deals with rat mGlu3 receptor (Rattus norvegicus (Rat), UniProt P31422). Nature of the assay: mGlu3 in vitro GIRK thallium flux assay. It is filed as cell-based. Particulars: head printed mGlu2 but taken as mGlu3; 60 min compound incubation; EC80 glutamate. As for the experimental part:
All cell culture reagents were purchased from Invitrogen Corp. (Carlsbad, Calif.) unless otherwise noted. Compound activity at the group II (mGlu2 and mGlu3) mGlus was assessed using thallium flux through GIRK channels. Briefly, cells were plated into 384-well, black-walled, clear-bottomed poly-D-lysine-coated plates at a density of 15,000 cells/20 μL/well in DMEM containing 10% dialyzed FBS, 20 mM HEPES, and 100 units/mL penicillin/streptomycin (assay media). Plated cells were incubated overnight at 37° C. in the presence of 5% CO2. […] Cells were incubated for 1 h at room temperature, and the dye exchanged to assay buffer using an ELX405, leaving 20 μL/well. Test compounds were diluted to 2 times their final desired concentration in assay buffer (0.3% DMSO final concentration). […] Cell plates and compound plates were loaded onto a kinetic imaging plate reader (FDSS 6000 or 7000; Hamamatsu Corporation, Bridgewater, N.J.). Appropriate baseline readings were taken (10 images at 1 Hz; excitation, 470±20 nm; emission, 540±30 nm) and test compounds were added in a 20 μL volume and incubated for either 2.5 min or 60 min as indicated before the addition of 10 μL of thallium buffer with or without agonist. […] Data were analyzed using Excel (Microsoft Corp, Redmond, Wash.). […] Potencies were calculated from fits using a four-point parameter logistic equation. […]

Where [1] appears, read: 2.5 min compound incubation, read-out: mGlu2 EC50 (μM) (2.5 min).
[2] abbreviates: 60 min compound incubation, read-out: mGlu2 EC50 (μM) (60 min).

As to `O=C(O)c1cccc(-c2cccc(-c3csc(-c4ccccc4)n3)c2)c1` [Example 28, 3′-(2-Phenylthiazol-4-yl)biphenyl-3-carboxylic Acid], the EC50 at rat mGlu2 receptor (setting [1]) turned out to be 0.42 µM.
Still for that read-out and setting: the same measure for `O=C(O)c1cc(-c2cccc(-c3nc(-c4ccoc4)cc(C(F)(F)F)n3)c2)ccc1F` [Example 94, 4-Fluoro-3′-(4-(furan-3-yl)-6-(trifluoromethyl)pyrimidin-2-yl)biphenyl-3-carboxylic Acid]: 0.15 µM.
For `O=C(O)c1cc(-c2cccc(-c3nc(-c4sccc4Cl)cc(C(F)(F)F)n3)c2)ccc1F` [Example 107, 3′-(4-(3-Chlorothiophen-2-yl)-6-(trifluoromethyl)pyrimidin-2-yl)-4-fluorobiphenyl-3-carboxylic Acid], the concentration for a half-maximal effect (EC50) at rat mGlu2 receptor (setting [2]) is 0.42 µM.
On the same count and under the same terms, the same measure for `O=C(O)c1cc(-c2cccc(-c3nc(-c4ccc(C(F)(F)F)cc4)cc(C(F)(F)F)n3)c2)ccc1F` [Example 108, 4-Fluoro-3′-(4-(trifluoromethyl)-6-(4-(trifluoromethyl)phenyl)pyrimidin-2-yl)biphenyl-3-carboxylic Acid]: 0.15 µM; for `O=C(O)c1ccc(F)c(-c2cccc(-c3nc(-c4ccoc4)cc(C(F)(F)F)n3)c2)c1` [Example 114, 6-Fluoro-3′-(4-(furan-3-yl)-6-(trifluoromethyl)pyrimidin-2-yl)biphenyl-3-carboxylic Acid]: 0.15 µM.
For the compound `O=C(O)c1cc(-c2cccc(-c3nc(-c4ccsc4)cc(C(F)(F)F)n3)c2)ccc1F` [Example 122, 4-Fluoro-3′-(4-(thiophen-3-yl)-6-(trifluoromethyl)pyrimidin-2-yl)-[1,1′-biphenyl]-3-carboxylic Acid], at rat mGlu2 receptor (setting [1]), the 50% effective concentration (EC50) worked out at 0.15 µM.
For the compound `Cc1cc2c(cc1C(F)(F)F)NC(=O)CC(c1cccc(Oc3ccccn3)c1)=N2` [Example 150, 7-Methyl-4-(3-(pyridin-2-yloxy)phenyl)-8-(trifluoromethyl)-1H-benzo[b][1,4]diazepin-2(3H)-one], the 50% effective concentration (EC50) at rat mGlu2 receptor (setting [2]) was 0.42 µM.
`O=C1CC(c2ccnc(Cl)c2)=Nc2ccc(C(F)(F)F)cc2N1` [Example 189, 4-(2-Chloropyridin-4-yl)-8-(trifluoromethyl)-1,3-dihydro-2H-benzo[b][1,4]diazepin-2-one]: the EC50 on rat mGlu3 receptor was 0.42 µM.

For the origin of these results see US9969726B2, “Metabotropic glutamate receptor negative allosteric modulators (NAMS) and uses thereof” (Sanford-Burnham Medical Research Institute, priority 2014, dated 2018).
